Measurements published in patent US6303618A, “Cyclin dependent kinase inhibiting purine derivatives” (priority 1997, dated 2001).

Amino acid sequences for entries named in this document (tags omitted).
UniProt P11802, whole entry, species assumed: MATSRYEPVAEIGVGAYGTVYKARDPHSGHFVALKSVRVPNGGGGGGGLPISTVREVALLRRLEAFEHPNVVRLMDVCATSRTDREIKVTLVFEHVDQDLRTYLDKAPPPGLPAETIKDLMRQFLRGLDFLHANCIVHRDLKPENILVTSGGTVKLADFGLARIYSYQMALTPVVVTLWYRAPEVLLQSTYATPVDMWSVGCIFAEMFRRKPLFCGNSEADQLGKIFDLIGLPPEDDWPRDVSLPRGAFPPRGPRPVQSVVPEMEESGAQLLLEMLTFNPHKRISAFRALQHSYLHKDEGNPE

Tests used:
[1] = test system: CDK6; conditions: in words; cited from earlier work
[2] = target: CDK4 (Homo sapiens, UniProt P11802); experiment: CDK inhibition assay, CDK4; format: biochemical; conditions: Table 1

Compound	activity against CDK6 [1]	IC50 [2]
CC[C@H](CO)Nc1nc(NCc2ccccc2)c2ncn(C(C)C)c2n1 [roscovitine, 6-(benzylamino)-2(R)-[{1-(hydroxy-methyl)propyl}amino]-9-isopropylpurine]	neither has been found to be active	
Cn1cnc2c(NCc3ccccc3)nc(NCCO)nc21 [Olomoucine, 2-(2-hydroxyethylamino)-6-benzylamino-9-methyl-purine]		> 1000 µM
